Laboratory results published in publication PMC7723054.
The other results are listed elsewhere or left out.

T1: LIN28A (human?, UniProt Q9H9Z2 1-209)
T1 sequence: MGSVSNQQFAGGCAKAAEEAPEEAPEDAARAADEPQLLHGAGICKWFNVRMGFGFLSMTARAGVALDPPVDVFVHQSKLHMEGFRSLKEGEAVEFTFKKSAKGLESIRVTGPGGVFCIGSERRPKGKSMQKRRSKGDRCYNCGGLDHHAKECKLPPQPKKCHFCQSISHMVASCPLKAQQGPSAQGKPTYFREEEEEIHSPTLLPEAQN

T2: CIRBP (Homo sapiens, UniProt Q14011 1-172)
T2 sequence: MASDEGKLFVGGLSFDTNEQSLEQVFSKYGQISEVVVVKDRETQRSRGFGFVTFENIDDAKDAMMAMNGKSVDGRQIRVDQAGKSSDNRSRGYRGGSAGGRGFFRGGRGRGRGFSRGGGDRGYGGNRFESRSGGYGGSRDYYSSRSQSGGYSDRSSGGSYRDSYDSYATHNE

T3: DHX36 (Homo sapiens, UniProt Q9H2U1 1-1008)
T3 sequence: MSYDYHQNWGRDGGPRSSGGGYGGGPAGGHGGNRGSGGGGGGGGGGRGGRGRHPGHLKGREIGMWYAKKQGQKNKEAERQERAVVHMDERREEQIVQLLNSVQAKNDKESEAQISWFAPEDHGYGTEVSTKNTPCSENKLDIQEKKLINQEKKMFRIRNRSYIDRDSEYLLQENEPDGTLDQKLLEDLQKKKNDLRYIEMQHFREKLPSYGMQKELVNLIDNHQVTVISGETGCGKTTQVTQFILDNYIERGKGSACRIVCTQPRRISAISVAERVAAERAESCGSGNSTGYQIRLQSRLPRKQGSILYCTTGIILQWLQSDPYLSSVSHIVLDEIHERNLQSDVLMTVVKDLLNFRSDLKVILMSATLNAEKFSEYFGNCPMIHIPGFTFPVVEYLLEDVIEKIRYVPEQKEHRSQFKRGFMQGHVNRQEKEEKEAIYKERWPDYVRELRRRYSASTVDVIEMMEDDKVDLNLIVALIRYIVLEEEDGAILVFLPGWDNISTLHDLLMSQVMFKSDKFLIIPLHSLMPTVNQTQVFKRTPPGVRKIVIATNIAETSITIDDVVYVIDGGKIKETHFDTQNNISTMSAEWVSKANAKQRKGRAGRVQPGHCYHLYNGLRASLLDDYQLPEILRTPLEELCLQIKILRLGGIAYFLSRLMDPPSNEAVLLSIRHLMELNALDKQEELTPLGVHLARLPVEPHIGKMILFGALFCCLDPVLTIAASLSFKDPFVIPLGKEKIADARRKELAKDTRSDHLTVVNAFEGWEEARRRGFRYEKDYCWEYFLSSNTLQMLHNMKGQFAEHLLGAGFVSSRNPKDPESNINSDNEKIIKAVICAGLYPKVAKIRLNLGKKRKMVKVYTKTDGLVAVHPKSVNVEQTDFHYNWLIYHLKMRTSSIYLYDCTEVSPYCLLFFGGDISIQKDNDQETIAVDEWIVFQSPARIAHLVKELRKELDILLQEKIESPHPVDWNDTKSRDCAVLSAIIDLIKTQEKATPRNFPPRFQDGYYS

B1: hsa-mir-7106 (structured_RNA)
RNA: GGGAAGCCUGCAAGUCGACCUCUGAACGGGUGUACGAAGUUUCAGCUGGGAGUGAUCCCAACAGCUGAGCUCCCUGCUGAAGCUUCGUGCAC
B2: hsa-mir-4648 (structured_RNA)
RNA: GGGAGAGACCCGGGAAUCUCGGUAUACCGGUGUACGAAGUUUCAGCGGAGCUCAGCACCUGCCUGCCACCCACGCAGACCAGCCCCUGCUCUGUUCCCACAGGCUGAAGCUUCGUGCAC
B3: hsa-mir-199a-1 (structured_RNA)
RNA: GGGAAUAGUCCGUUCUGGGAAGACUGUCGGUGUACGAAGUUUCAGCCUGUUCAGGAGGCUCUCAAUGUGUACAGCUGAAGCUUCGUGCAC
B4: hsa-mir-3928 (structured_RNA)
RNA: GGGACCCAUGAGUAUCGCCUAGUGACUUGGUGUACGAAGUUUCAGCGCCUGCGGGCAGGAAGCGGAGCUGAAGCUUCGUGCAC
B5: hsa-mir-936 (structured_RNA)
RNA: GGGAAGAAGCGCCAUUGCUAGUCAUGCUGGUGUACGAAGUUUCAGCGCAGAAAUCACUCCAGGAGCAACUGAGCUGAAGCUUCGUGCAC
B6: hsa-mir-6836 (structured_RNA)
RNA: GGGAUAAAAUGGCGGUAGGCCCCAUCUCGGUGUACGAAGUUUCAGCGCAUCCAGACAGCGGGCGAAUGCGCUGAAGCUUCGUGCAC
B7: hsa-mir-483 (structured_RNA)
RNA: GGGAAAGAGUAGGAUACUUAACCGGUCAGGUGUACGAAGUUUCAGCGGGAGUGGUUCCAUCACGCCUCCUCACGCUGAAGCUUCGUGCAC
B8: hsa-mir-3174 (structured_RNA)
RNA: GGGAACUUUGUCACCACGCCGAUUAUGAGGUGUACGAAGUUUCAGCAGCCCUGGGCUCCUCAGCAAACCUACUGGAUGCUGAAGCUUCGUGCAC
B9: hsa-mir-4436a (structured_RNA)
RNA: GGGAGACGGUUCCAUUGAGGUCGGUGACGGUGUACGAAGUUUCAGCCUGCCCCUCGAAUCUGCUCCACGAUUUGGGCAGGCUGAAGCUUCGUGCAC
B10: hsa-mir-4313 (structured_RNA)
RNA: GGGAGUAAGAGUCGGGCAUGUAAACGAGGGUGUACGAAGUUUCAGCACCCUGCAGCCCCAGCUGGAGGAUGAGGAGAUGCUGGGCUUGGGUGCUGAAGCUUCGUGCAC
B11: hsa-mir-6890 (structured_RNA)
RNA: GGGACAUAAUGGAGUUAGGUCCGAAACCGGUGUACGAAGUUUCAGCUAGGGCUGGAUGGUAGGGCCCAGCUGAAGCUUCGUGCAC

How the values were obtained:
Assay in all cases: FOREST: bead pull-down of RNA structure library v1, barcode microarray; U1A/LIN28A: 20 mM HEPES pH 7.5, 80 mM KCl, 20 mM NaCl, 10% glycerol, 2 mM DTT, 0.1 ug/uL BSA, 4 C; BG4/CIRBP/DHX36: 10 mM Tris-HCl pH 7.5, 100 mM KCl (or LiCl),; high values mean tight binding
U1A = U1A (Homo sapiens, UniProt P09012)
LIN28A = biological target: T1, LIN28A
CIRBP = biological target: T2, CIRBP
DHX36 = biological target: T3, DHX36

Binder | binding signal (U1A) | binding signal (LIN28A) | binding signal (CIRBP) | binding signal (DHX36)
B1 | 0.191 z-score | -1.74 z-score | -1.46 z-score | 0.0765 z-score
B2 | 1.86 z-score | -0.804 z-score | -1.87 z-score | -0.621 z-score
B3 | 0.194 z-score | 2.65 z-score | -0.663 z-score | -0.586 z-score
B4 | 0.192 z-score | 0.976 z-score | 0.292 z-score | 0.933 z-score
B5 | 0.196 z-score | 0.39 z-score | 0.264 z-score | 0.0134 z-score
B6 | 0.19 z-score | -0.301 z-score | -1.21 z-score | -0.347 z-score
B7 | 0.19 z-score | -0.463 z-score | -0.044 z-score | -0.36 z-score
B8 | 0.194 z-score | -2.17 z-score | -0.806 z-score | -1.04 z-score
B9 | 0.189 z-score | -0.606 z-score | -1.35 z-score | 0.463 z-score
B10 | 0.191 z-score | 2.04 z-score | -0.232 z-score | 2.19 z-score
B11 | 0.189 z-score | 1.57 z-score | 1.78 z-score | 1.82 z-score
